Antibody variant affinities, Ab-14 light chain, assay 1

Data: MIT Lincoln Laboratory AlphaSeq set, Engelhart et al. 2022, doi:10.1038/s41597-022-01779-4, as distributed in FLAb.

Antigen: PDVDLGDISGINAS, a 14-residue peptide of the SARS-CoV-2 spike HR2 region.

Ab-14 is the parent antibody, in scFv form: VH, then the linker GGGGSGGGGSGGGGS, then VL. The heavy chain is unchanged in all variants.
VH: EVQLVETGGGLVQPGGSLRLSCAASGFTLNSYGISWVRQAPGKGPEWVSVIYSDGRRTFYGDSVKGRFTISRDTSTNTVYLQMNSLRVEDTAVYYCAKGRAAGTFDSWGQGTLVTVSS
VL: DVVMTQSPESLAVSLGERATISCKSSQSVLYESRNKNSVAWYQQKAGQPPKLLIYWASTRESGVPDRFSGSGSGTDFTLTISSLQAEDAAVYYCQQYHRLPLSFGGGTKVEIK

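The starting antibody came from a phage panning campaign against this peptide. Variants in AAYL50 differ from the parent at up to three CDR positions; double and triple changes were sampled at random. Affinity was read by AlphaSeq, a pooled yeast mating assay with surface-displayed partners. Pairs that bind mate more often; barcode pairs of the diploids are counted by sequencing. Scores were corrected for input abundance and mapped to Kd with protein pairs of known affinity run in the same pool. Each pool was mated in three replicate cultures.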

Variants are written as CDR1, CDR2 and CDR3 of the light chain (limits as in the source). Parent: KSSQSVLYESRNKNSVA, WASTRES, QQYHRLPLS. Values are log10 of the apparent Kd in nM; lower means stronger binding. Replicates are averaged; those with no signal do not enter the mean. A pair that was not seen in that replicate is written "ND"; this usually means weak binding, but a binder can also be missed. As a blank, each scFv also met three strains without target: over library AAYL50, 18% of these pairings were detected, typically at 4.19 and seldom below 2.99. For each scFv, signals with the empty controls are counted beside the result, with their mean in brackets.

{"CDR-L1": "CSSQSVLAESRNKNSVA", "CDR-L2": "WASTRES", "CDR-L3": "QQYHRLPLS", "log10 Kd, replicates": "1.86 2.07 2.43", "log10 Kd (nM), mean": "2.12", "control signals": "2 of 9 (4.84)"}
{"CDR-L1": "KSSQSVLYESRNKNSVA", "CDR-L2": "WALTREE", "CDR-L3": "QIYHRLPLS", "log10 Kd, replicates": "ND 4.67 5.12", "log10 Kd (nM), mean": "4.90", "control signals": "2 of 9 (5.04)"}
{"CDR-L1": "KSSQQNLYESRNKNDVA", "CDR-L2": "WASTRES", "CDR-L3": "QQYHRLPLS", "log10 Kd, replicates": "1.84 1.96 1.87", "log10 Kd (nM), mean": "1.89", "control signals": "2 of 9 (3.40)"}
{"CDR-L1": "KSSQSVLYESRSKNFKA", "CDR-L2": "WASTRES", "CDR-L3": "QQYHRLPLS", "log10 Kd, replicates": "ND ND ND", "log10 Kd (nM), mean": "ND", "control signals": "1 of 9 (3.30)"}
{"CDR-L1": "MSSQSVLYSSRNKNSVA", "CDR-L2": "WASTNES", "CDR-L3": "QQYHRLPLS", "log10 Kd, replicates": "4.42 ND 4.68", "log10 Kd (nM), mean": "4.55", "control signals": "3 of 9 (3.93)"}
{"CDR-L1": "KSSQSVLYISRNKNSVA", "CDR-L2": "WASARES", "CDR-L3": "QQYHREPLS", "log10 Kd, replicates": "ND ND ND", "log10 Kd (nM), mean": "ND", "control signals": "1 of 9 (3.82)"}
{"CDR-L1": "KSQQSVLYEYRNKNSVA", "CDR-L2": "WASTREQ", "CDR-L3": "QQYHRLPLS", "log10 Kd, replicates": "ND ND 4.21", "log10 Kd (nM), mean": "4.21", "control signals": "1 of 9 (4.21)"}
{"CDR-L1": "KSSQSVMYESRNKNSVA", "CDR-L2": "WASTRES", "CDR-L3": "QQYHRLPVS", "log10 Kd, replicates": "1.18 1.38 1.20", "log10 Kd (nM), mean": "1.25", "control signals": "4 of 9 (5.34)"}
{"CDR-L1": "KASQSVLYESRNKNSVA", "CDR-L2": "WASTRRS", "CDR-L3": "QQYHLLPLS", "log10 Kd, replicates": "3.22 3.49 3.26", "log10 Kd (nM), mean": "3.32", "control signals": "7 of 9 (4.82)"}
{"CDR-L1": "KSSWSVLYESRNKNSVA", "CDR-L2": "WASTRES", "CDR-L3": "QQSHRLPLS", "log10 Kd, replicates": "0.84 0.98 0.96", "log10 Kd (nM), mean": "0.93", "control signals": "6 of 9 (4.43)"}
{"CDR-L1": "KSSQSVLYEDRNKNSVA", "CDR-L2": "WASTREP", "CDR-L3": "QQYHRRPLS", "log10 Kd, replicates": "1.90 ND 2.17", "log10 Kd (nM), mean": "2.04", "control signals": "1 of 9 (2.17)"}
{"CDR-L1": "ISSQSVLYESRNKNSVA", "CDR-L2": "WASTRES", "CDR-L3": "TGYHRLPLS", "log10 Kd, replicates": "3.62 2.82 3.69", "log10 Kd (nM), mean": "3.38", "control signals": "5 of 9 (4.68)"}
{"CDR-L1": "KSSQSVLYRSRNKNSVA", "CDR-L2": "WASTRES", "CDR-L3": "QQRHRLPLR", "log10 Kd, replicates": "ND ND ND", "log10 Kd (nM), mean": "ND", "control signals": "0 of 9"}
{"CDR-L1": "KSSQSVLYESRNKNLVA", "CDR-L2": "FASTRES", "CDR-L3": "QQQHRLPLS", "log10 Kd, replicates": "4.46 ND ND", "log10 Kd (nM), mean": "4.46", "control signals": "2 of 9 (4.22)"}
{"CDR-L1": "KVLQSVLYESRIKNSVA", "CDR-L2": "WASTRES", "CDR-L3": "QQYHRLPLS", "log10 Kd, replicates": "0.66 0.82 0.77", "log10 Kd (nM), mean": "0.75", "control signals": "1 of 9 (5.05)"}
{"CDR-L1": "KSSQTVLYESRNKNSVA", "CDR-L2": "WASTRES", "CDR-L3": "QQYHRPPLE", "log10 Kd, replicates": "ND ND 3.96", "log10 Kd (nM), mean": "3.96", "control signals": "0 of 9"}
{"CDR-L1": "KSSQSVLYGSRNKNSVA", "CDR-L2": "WAGTRES", "CDR-L3": "QQYHRLPLV", "log10 Kd, replicates": "1.30 1.21 1.52", "log10 Kd (nM), mean": "1.34", "control signals": "1 of 9 (4.16)"}
{"CDR-L1": "DSSQSVLYESRNKNSVA", "CDR-L2": "WASTRES", "CDR-L3": "HYYHRLPLS", "log10 Kd, replicates": "ND ND ND", "log10 Kd (nM), mean": "ND", "control signals": "0 of 9"}
{"CDR-L1": "KSSQSVLYESRNKNSVA", "CDR-L2": "WASTRES", "CDR-L3": "QDYHRNPLS", "log10 Kd, replicates": "0.83 0.98 1.12", "log10 Kd (nM), mean": "0.98", "control signals": "1 of 9 (2.19)"}
{"CDR-L1": "KSSASVLYESRNKNSVA", "CDR-L2": "QASTRES", "CDR-L3": "QCYHRLPLS", "log10 Kd, replicates": "0.07 0.27 0.36", "log10 Kd (nM), mean": "0.24", "control signals": "3 of 9 (3.89)"}
{"CDR-L1": "KRSQSVLDESRNKNSVA", "CDR-L2": "WASTQES", "CDR-L3": "QQYHRLPLS", "log10 Kd, replicates": "ND ND ND", "log10 Kd (nM), mean": "ND", "control signals": "1 of 9 (4.70)"}
{"CDR-L1": "KSSHSVLYEGRNKNSVA", "CDR-L2": "WASTREW", "CDR-L3": "QQYHRLPLS", "log10 Kd, replicates": "0.88 1.23 1.26", "log10 Kd (nM), mean": "1.12", "control signals": "0 of 9"}
{"CDR-L1": "KSSQSVILESRNKNSVA", "CDR-L2": "WASTRES", "CDR-L3": "QQYCRLPLS", "log10 Kd, replicates": "ND ND ND", "log10 Kd (nM), mean": "ND", "control signals": "3 of 9 (4.87)"}
{"CDR-L1": "KSSQSVLYESRNKNSVA", "CDR-L2": "KASTRIS", "CDR-L3": "QQKHRLPLS", "log10 Kd, replicates": "2.69 1.95 1.90", "log10 Kd (nM), mean": "2.18", "control signals": "1 of 9 (2.68)"}
{"CDR-L1": "KRSQSVLYESRNKNGVA", "CDR-L2": "WASTRES", "CDR-L3": "QQYHREPLS", "log10 Kd, replicates": "6.06 5.26 ND", "log10 Kd (nM), mean": "5.66", "control signals": "6 of 9 (4.86)"}
{"CDR-L1": "KSSQSVLYEMRNKNSVA", "CDR-L2": "QASTAES", "CDR-L3": "QQYHRLPLS", "log10 Kd, replicates": "1.69 1.45 1.96", "log10 Kd (nM), mean": "1.70", "control signals": "1 of 9 (2.47)"}
{"CDR-L1": "KSSQSVLYESANKNSVA", "CDR-L2": "WASTRES", "CDR-L3": "QQYHRLRVS", "log10 Kd, replicates": "ND ND ND", "log10 Kd (nM), mean": "ND", "control signals": "0 of 9"}
{"CDR-L1": "KESQSVLYESRNKNSVR", "CDR-L2": "WASTGES", "CDR-L3": "QQYHRLPLS", "log10 Kd, replicates": "4.53 4.02 3.79", "log10 Kd (nM), mean": "4.12", "control signals": "4 of 9 (4.54)"}
{"CDR-L1": "KSMQSGLYESRNKNSVA", "CDR-L2": "WASTRRS", "CDR-L3": "QQYHRLPLS", "log10 Kd, replicates": "2.42 2.27 2.34", "log10 Kd (nM), mean": "2.34", "control signals": "3 of 9 (4.11)"}
{"CDR-L1": "KSTQMRLYESRNKNSVA", "CDR-L2": "WASTRES", "CDR-L3": "QQYHRLPLS", "log10 Kd, replicates": "1.32 1.37 1.38", "log10 Kd (nM), mean": "1.36", "control signals": "0 of 9"}

Repeated from above, the 3 best binders with a signal in all replicates:

| CDR-L1 | CDR-L2 | CDR-L3 | log10 Kd, replicates | log10 Kd (nM), mean | control signals |
|---|---|---|---|---|---|
| KSSASVLYESRNKNSVA | QASTRES | QCYHRLPLS | 0.07 0.27 0.36 | 0.24 | 3 of 9 (3.89) |
| KVLQSVLYESRIKNSVA | WASTRES | QQYHRLPLS | 0.66 0.82 0.77 | 0.75 | 1 of 9 (5.05) |
| KSSWSVLYESRNKNSVA | WASTRES | QQSHRLPLS | 0.84 0.98 0.96 | 0.93 | 6 of 9 (4.43) |